In patent US6790644B2, “1,3-dicarbonyl-dioxygenase—a new c-c-bond cleaving enzyme” (Biocatalytics, Inc., priority 2001, dated 2004) one finds Km data, which are given here for 1 substance.

The data set relates to CC(=O)CC(C)=O. Briefly: purified protein, by the assay type. To be noted: pH 7.5; 25.0 °C.

In general, Km refers to the concentration of substrate that gives half-maximal velocity. For the substance “1,3-dicarbonyl-dioxygenase (Acinetobacter johnsonii)”, the Km amounted to 7.4 ± 1.9 µM.
